Where two headings read alike, the source gives them in different places.
How the values were obtained:
human ferroportin = target: T1, human ferroportin (Homo sapiens, UniProt Q9NP59); experiment: FPN activity assay: internalization/degradation of ferroportin-GFP in stably transfected HEK293 cells (decrease in GFP fluorescence); type: cell-based
T1 construct: expressed in transfected cells
T1 sequence (Q9NP59 1-571): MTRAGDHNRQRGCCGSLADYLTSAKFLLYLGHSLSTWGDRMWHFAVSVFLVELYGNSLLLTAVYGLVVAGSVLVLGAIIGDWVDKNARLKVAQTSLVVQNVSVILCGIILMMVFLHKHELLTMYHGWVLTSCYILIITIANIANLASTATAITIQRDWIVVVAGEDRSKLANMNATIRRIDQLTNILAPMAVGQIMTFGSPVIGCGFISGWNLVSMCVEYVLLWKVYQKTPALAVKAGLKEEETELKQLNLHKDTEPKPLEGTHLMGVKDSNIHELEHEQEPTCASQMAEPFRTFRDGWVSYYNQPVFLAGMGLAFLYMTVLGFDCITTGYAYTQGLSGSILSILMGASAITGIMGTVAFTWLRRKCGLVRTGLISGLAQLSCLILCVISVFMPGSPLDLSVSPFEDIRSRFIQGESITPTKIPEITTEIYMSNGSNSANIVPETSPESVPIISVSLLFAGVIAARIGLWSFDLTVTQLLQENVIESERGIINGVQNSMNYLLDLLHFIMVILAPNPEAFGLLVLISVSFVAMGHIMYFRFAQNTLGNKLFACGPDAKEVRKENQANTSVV
Method: Following internalization, the ferroportin protein is degraded.
A retro inverse peptide is a peptide with a reversed sequence in all D amino acids. An example is that Hy-Glu-Thr-His-NH2 becomes Hy-DHis-DThr-DGlu-NH2. The EC50 of these reference compounds for ferroportin internalization/degradation was determined according to the FPN activity assay described above. These peptides served as control standards.
These values were determined as described herein.

[1] = target: T2, ferroportin (endogenously expressed in T47D cells) (Homo sapiens, UniProt Q9NP59); experiment: T47D cell-based ferroportin internalization assay in presence of 0.5% mouse serum albumin (AF647-conjugated detection peptide, flow cytometry); settings: read-out: IC50: T47D Internalization MSA
T2 construct: is a human breast carcinoma adherent cell line which endogenously expresses ferroportin; host or cells: T47D
T2 sequence (Q9NP59 1-571): T1 sequence (Q9NP59 1-571)

[2] = Table 2B, HEK293 cells expressing human ferroportin-GFP, at least 18 hours incubation, read-out: FPN EC50
[3] = Table 2A, HEK293 cells expressing human ferroportin-GFP, at least 18 hours incubation, read-out: FPN EC50
[4] = Table 2C, class symbols, read-out: FPN IC50

Substance: Butyric Acid-E-T-H-[Dpa]-P—C—I-[Lys(1PEG2_1PEG2_IsoGlu_C18_Diacid)]-[bhPhe]-[(D)Lys]-C—NH2 [Compound 259]
- DC50 (human ferroportin; [2]): 18.6 nM

Substance: Cyclohexanecarboxylic_Acid-E-T-H-[Dpa]-P—C—I-[Lys(1PEG2_1PEG2_IsoGlu_C18_Diacid)]-[bhPhe]-[(D)Lys]-C—NH2 [Compound 260]
- DC50 (human ferroportin; [2]): 21.3 nM

Substance: Heptanoic_Acid-E-T-H-[Dpa]-P—C—I-[Lys(1PEG2_1PEG2_IsoGlu_C18_Diacid)]-[bhPhe]-[(D)Lys]-C—NH2 [Compound 261]
- DC50 (human ferroportin; [2]): 125 nM

Substance: Hexanoic_Acid-E-T-H-[Dpa]-P—C—I-[Lys(1PEG2_1PEG2_IsoGlu_C18_Diacid)]-[bhPhe]-[(D)Lys]-C—NH2 [Compound 263]
- DC50 (human ferroportin; [2]): 941 nM

Substance: Isovaleric Acid-E-T-H-[Dpa]-P-[Cys]-I-[(D)Lys]-[a-MePhe]-[Lys(2Peg11′_Palm)]-R-[Cys]-NH2 [Compound 28]
- DC50 (human ferroportin; [3]): 28 nM

Substance: Isovaleric Acid-E-T-H-[Dpa]-P-[Cys]-I-[(D)Lys]-[bhPhe]-[Lys(1PEG2_1PEG2_Dap_C18_Diacid)]-[(D)Lys]-[Cys]-NH2 [Compound 333]
- DC50 (human ferroportin; [2]): 64 nM

Substance: Isovaleric Acid-E-T-H-[Dpa]-P-[Cys]-I-[(D)Lys]-[bhPhe]-[Lys(2Peg4_Ahx_Palm)]-[(D)Lys]-[Cys]-NH2 [Compound 69]
- DC50 (human ferroportin; [3]): 8.9 nM

Substance: Isovaleric Acid-E-T-H-[Dpa]-P-[Cys]-I-[(D)Lys]-[bhPhe]-[Lys(2Peg11′_Palm)]-R-[Cys]-NH2 [Compound 27]
- DC50 (human ferroportin; [3]): 20 nM

Substance: Isovaleric Acid-E-T-H-[Dpa]-P-[Cys]-I-[(D)Lys]-[bhPhe]-[Lys(Ahx_Palm)]-[(D)Leu]-[Cys]-NH2 [Compound 90]
- DC50 (human ferroportin; [3]): 18.8 nM

Substance: Isovaleric Acid-E-T-H-[Dpa]-P-[Cys]-I-[(D)Lys]-[bhPhe]-[Lys(Ahx_Palm)]-[(D)Lys]-[(D)Cys]-NH2 [Compound 94]
- DC50 (human ferroportin; [3]): 21 nM

Substance: Isovaleric Acid-E-T-H-[Dpa]-P-[Cys]-I-[(D)Lys]-[bhPhe]-[Lys(Ahx_Palm)]-[(D)Lys_IVA)]-[Cys]-NH2 [Compound 96]
- DC50 (human ferroportin; [3]): 24 nM

Substance: Isovaleric Acid-E-T-H-[Dpa]-P-[Cys]-I-[(D)Lys]-[bhPhe]-[Lys(IsoGlu_Palm)]-[(D)Lys]-[Cys]-NH2 [Compound 68]
- DC50 (human ferroportin; [3]): 5.2 nM

Substance: Isovaleric Acid-E-T-H-[Dpa]-P-[Cys]-I-[(D)Lys_IVA)]-[bhPhe]-[Lys(Ahx_Palm)]-[(D)Lys_IVA)]-[Cys]-NH2 [Compound 106]
- DC50 (human ferroportin; [3]): 20.3 nM

Substance: Isovaleric Acid-E-T-H-[Dpa]-P-[Cys]-I-[Lys(1PEG2_1PEG2_Ahx_C18_Diacid)]-[bhPhe]-[N—((CH2)5NH2)Gly]-[Cys]-NH2 [Compound 135]
- DC50 (human ferroportin; [3]): 16.6 nM

Substance: Isovaleric Acid-E-T-H-[Dpa]-P-[Cys]-I-[Lys(1Peg2_1Peg2_Ahx_Palm)]-[bhPhe]-[(D)Lys]-[Cys]-NH2 [Compound 64]
- DC50 (human ferroportin; [3]): 17.5 nM

Substance: Isovaleric Acid-E-T-H-[Dpa]-P-[Cys]-I-[Lys(1Peg2_1Peg2_IsoGlu_C18_Diacid)]-[bhPhe]-[(D)Lys]-[Cys]-NH2 [Compound 119]
- DC50 (human ferroportin; [3]): 72.1 nM

Substance: Isovaleric Acid-E-T-H-[Dpa]-P-[Cys]-I-[Lys(1Peg2_Ahx_C18_Diacid)]-[bhPhe]-[(D)Lys]-[Cys]-NH2 [Compound 116]
- DC50 (human ferroportin; [3]): 13.7 nM

Substance: Isovaleric Acid-E-T-H-[Dpa]-P-[Cys]-I-[Lys(1Peg2_Ahx_Palm)]-[bhPhe]-[(D)Lys]-[Cys]-NH2 [Compound 62]
- DC50 (human ferroportin; [3]): 16.3 nM

Substance: Isovaleric Acid-E-T-H-[Dpa]-P-[Cys]-I-[Lys(2Peg8_Ahx_Palm)]-[bhPhe]-[(D)Lys]-[Cys]-NH2 [Compound 63]
- DC50 (human ferroportin; [3]): 24.7 nM

Substance: Isovaleric Acid-E-T-H-[Dpa]-P-[Cys]-I-[Lys(2Peg11′_2Peg11′_Palm)]-[bhPhe]-[(D)Lys]-[Cys]-NH2 [Compound 38]
- DC50 (human ferroportin; [3]): 17.8 nM

Substance: Isovaleric Acid-E-T-H-[Dpa]-P-[Cys]-I-[Lys(2Peg11′_Ahx_C18_Diacid)]-[bhPhe]-[(D)Lys]-[Cys]-NH2 [Compound 29]
- DC50 (human ferroportin; [3]): 15.5 nM

Substance: Isovaleric Acid-E-T-H-[Dpa]-P-[Cys]-I-[Lys(2Peg11′_Ahx_IsoGlu_Behenic_acid)]-[bhPhe]-[(D)Lys]-[Cys]-NH2 [Compound 31]
- DC50 (human ferroportin; [3]): 18.7 nM

Substance: Isovaleric Acid-E-T-H-[Dpa]-P-[Cys]-I-[Lys(2Peg11′_Ahx_Palm)]-[bhPhe]-[(D)Lys]-[Cys]-NH2 [Compound 32]
- DC50 (human ferroportin; [3]): 15.4 nM

Substance: Isovaleric Acid-E-T-H-[Dpa]-P-[Cys]-I-[Lys(2Peg11′_IsoGlu_C16_Diacid)]-[bhPhe]-[(D)Lys]-[Cys]-NH2 [Compound 109]
- IC50 [1]: 216 nM
- DC50 (human ferroportin; [3]): 14.2 nM

Substance: Isovaleric Acid-E-T-H-[Dpa]-P-[Cys]-I-[Lys(2Peg11′_IsoGlu_C18_Diacid)]-[bhPhe]-[(D)Lys]-[Cys]-NH2 [Compound 110]
- IC50 [1]: 269 nM
- DC50 (human ferroportin; [3]): 25.4 nM

Substance: Isovaleric Acid-E-T-H-[Dpa]-P-[Cys]-I-[Lys(2Peg11′_IsoGlu_C20_Diacid)]-[bhPhe]-[(D)Lys]-[Cys]-NH2 [Compound 111]
- IC50 [1]: 230 nM
- DC50 (human ferroportin; [3]): 39.4 nM

Substance: Isovaleric Acid-E-T-H-[Dpa]-P-[Cys]-I-[Lys(Ac)]-[bhPhe]-K-R-[Cys]-NH2 [Compound 42]
- DC50 (human ferroportin; [3]): > 3000 nM

Substance: Isovaleric Acid-E-T-H-[Dpa]-P-[Cys]-I-[Lys(Ac)]-[bhPhe]-[(D)Lys(Ac)]-[Cys]-NH2 [Compound 120]
- DC50 (human ferroportin; [3]): 10.7 nM

Substance: Isovaleric Acid-E-T-H-[Dpa]-P-[Cys]-I-[Lys(Ac)]-[bhPhe]-[(D)Lys(Ac)]-[Cys]-[(D)Asp]-NH2 [Compound 125]
- DC50 (human ferroportin; [3]): 91 nM

Substance: Isovaleric Acid-E-T-H-[Dpa]-P-[Cys]-I-[Lys(Ac)]-[bhPhe]-[(D)Lys(Ac)]-[Cys]-[(D)Glu]-NH2 [Compound 123]
- DC50 (human ferroportin; [3]): 90 nM

Substance: Isovaleric Acid-E-T-H-[Dpa]-P-[Cys]-I-[Lys(Ac)]-[bhPhe]-[(D)Lys]-[Cys]-NH2 [Compound 118]
- DC50 (human ferroportin; [3]): 12.1 nM

Substance: Isovaleric Acid-E-T-H-[Dpa]-P-[Cys]-I-[Lys(Ado_IsoGlu_C18_Diacid)]-[bhPhe]-[(D)Lys]-[Cys]-NH2 [Compound 37]
- DC50 (human ferroportin; [3]): 94.2 nM

Substance: Isovaleric Acid-E-T-H-[Dpa]-P-[Cys]-I-[Lys(Ahx_Ahx_C18_Diacid)]-[bhPhe]-[(D)Lys]-[Cys]-NH2 [Compound 34]
- DC50 (human ferroportin; [3]): 15.4 nM

Substance: Isovaleric Acid-E-T-H-[Dpa]-P-[Cys]-I-[bhPhe]-[Lys(Ahx_Palm)]-[(D)Lys]-[Cys]-NH2 [Compound 78]
- DC50 (human ferroportin; [3]): 39.3 nM

Substance: Isovaleric Acid-E-T-H-[Dpa]-P-[Cys]-L-[(D)Lys]-[bhPhe]-[Lys(Ahx_Palm)]-[(D)Lys]-[Cys]-NH2 [Compound 88]
- DC50 (human ferroportin; [3]): 6.9 nM

Substance: Isovaleric Acid-E-T-H-[Dpa]-P—C—I-[Lys(1PEG2_1PEG2_Ahx_C18_Diacid)]-[bhPhe]-[(D)Lys(Ac-C—NH2 [Compound 290]
- IC50 [1]: 61.6 nM
- DC50 (human ferroportin; [2]): 27.4 nM

Substance: Isovaleric Acid-E-T-H-[Dpa]-P—C—I-[Lys(1PEG2_1PEG2_Ahx_C18_Diacid)]-[bhPhe]-[Lys(PEG11_OMe)]—C—NH2 [Compound 286]
- DC50 (human ferroportin; [2]): 24.4 nM

Substance: Isovaleric Acid-E-T-H-[Dpa]-P—C—I-[Lys(1PEG2_1PEG2_IsoGlu_C10_Diacid)]-[bhPhe]-[(D)Lys]-C—NH2 [Compound 235]
- DC50 (human ferroportin; [2]): 19.6 nM

Substance: Isovaleric Acid-E-T-H-[Dpa]-[bhPhe]-C—I-[Lys(1PEG2_1PEG2_IsoGlu_C18_Diacid)]-[bhPhe]-[(D)Lys]-C—NH2 [Compound 273]
- DC50 (human ferroportin; [2]): 34 nM

Substance: Isovaleric Acid-E-T-H—F—P—C—I-[Lys(1PEG2_1PEG2_IsoGlu_C10_Diacid)]-F-E-P—R—S—K-G-C—NH2 [Compound 249]
- DC50 (human ferroportin; [2]): 170 nM

Substance: Isovaleric Acid-[Glu_OMe]-T-H-[Dpa]-P-[Cys]-I-[meK]-[bhPhe]-[Lys(Ahx_Palm)]-[meLys]-[Cys]-NH2 [Compound 332]
- DC50 (human ferroportin; [2]): 24 nM

Substance: Isovaleric_Acid-dIsoGlu-T-H-[Dpa]-P—C—I-[Lys(PEG12_C18_Diacid)]-[bhPhe]-[(D)Lys]-C—NH2 [Compound 311]
- DC50 (human ferroportin; [2]): 20.8 nM

Substance: Octanoic_Acid-E-T-H-[Dpa]-P—C—I-[Lys(1PEG2_1PEG2_IsoGlu_C18_Diacid)]-[bhPhe]-[(D)Lys]-C—NH2 [Compound 241]
- DC50 (human ferroportin; [2]): 468 nM

Substance: Valeric_Acid-E-T-H-[Dpa]-P—C—I-[Lys(1PEG2_1PEG2_IsoGlu_C18_Diacid)]-[bhPhe]-[(D)Lys]-C—NH2 [Compound 264]
- DC50 (human ferroportin; [2]): 622 nM

Substance: [Isovaleric Acid]-E-T-A-[Dpa]-P—C—I-[(D)Lys]-[bhPhe]-[Lys(Ahx_Palm)]-[(D)Lys]-C—NH2 [Compound 613]
- DC50 (human ferroportin; [4]): 31 to 100 nM

Substance: [Isovaleric Acid]-E-T-[2Pal]-[Dpa]-P—C—I-[(D)Lys]-[bhPhe]-[Lys(PEG12_Palm)]-R—C—NH2 [Compound 621]
- DC50 (human ferroportin; [4]): 1 to 30 nM

Substance: [Isovaleric Acid]-E-[Hyp]-H-[Dpa]-P—C—I-[(D)Lys]-[bhPhe]-[Lys(Ahx_Palm)]-[(D)Lys]-C—NH2 [Compound 619]
- DC50 (human ferroportin; [4]): 31 to 100 nM

Source: patent publication US20230295259A1 (Protagonist Therapeutics, Inc., priority 2020, published 2023)
